Results from patent US20140058108A1 (SINOXA PHARMA UG, priority 2010, published 2014).

Protein sequences, listed by entry. Tags and fused reporters are not part of them.
UniProt P50129, whole entry: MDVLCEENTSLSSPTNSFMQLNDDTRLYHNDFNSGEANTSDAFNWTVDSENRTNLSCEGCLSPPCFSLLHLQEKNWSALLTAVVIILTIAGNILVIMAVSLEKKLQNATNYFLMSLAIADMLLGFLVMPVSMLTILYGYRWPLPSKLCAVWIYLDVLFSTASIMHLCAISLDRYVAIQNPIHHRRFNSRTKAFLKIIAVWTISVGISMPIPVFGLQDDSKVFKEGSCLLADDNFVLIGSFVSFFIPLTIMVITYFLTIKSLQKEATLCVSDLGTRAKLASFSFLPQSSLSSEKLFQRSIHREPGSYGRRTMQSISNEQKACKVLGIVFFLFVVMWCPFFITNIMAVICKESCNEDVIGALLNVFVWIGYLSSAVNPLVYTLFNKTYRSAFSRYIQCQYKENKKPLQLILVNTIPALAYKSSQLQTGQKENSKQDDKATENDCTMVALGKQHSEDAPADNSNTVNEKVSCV

Biological target: T1, 5-HT2A receptors of coronary arteries in pigs (Sus scrofa, UniProt P50129)
T1 construct: 5-HT2A-mediated contraction of the coronary arteries in pigs; from tissue; host or cells: isolated pig coronary artery
Assay: Inhibition of 5-HT2A-mediated, 5-HT-induced contraction of coronary arteries in pigs
Format: cell-based
Settings: footnote a: pD′2 (non-competitive antagonism)

CCN(CC)C(=O)N[C@H]1C[C@@H]2c3cccc4[nH]cc(c34)C[C@H]2N(C)C1 [Terguride, trans-dihydrolisuride]
5-HT2A pD′2 value: 9.43 ± 0.08^a
